## Ab-14 heavy chain CDR variants: yeast mating affinities

Target peptide (SARS-CoV-2 spike, HR2 region): PDVDLGDISGINAS

Parent scFv Ab-14: VH joined to VL by a (GGGGS)3 linker. Changes lie in the heavy chain CDRs alone.
VH: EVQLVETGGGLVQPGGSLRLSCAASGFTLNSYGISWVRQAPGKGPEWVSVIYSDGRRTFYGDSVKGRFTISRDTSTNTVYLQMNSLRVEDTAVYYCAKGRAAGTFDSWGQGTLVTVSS
VL: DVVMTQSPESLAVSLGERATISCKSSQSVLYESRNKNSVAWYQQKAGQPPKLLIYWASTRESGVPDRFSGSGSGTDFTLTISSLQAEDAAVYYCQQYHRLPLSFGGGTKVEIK

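These sequences belong to a second round, designed from the earlier measurements on random variants of the parent. Their group label is 14H_En_Gen (En: ensemble of fine-tuned language models; Gen: genetic algorithm). Affinity was read by AlphaSeq, a pooled yeast mating assay with surface-displayed partners. After mating in shaken culture at 30 °C for 16 h, diploids were selected and their barcode pairs sequenced. A regression on co-assayed BCL2-family reference pairs converts the normalised counts of each replicate to an apparent Kd. Each pool was mated in six replicate cultures.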

Variants are written as CDR1, CDR2 and CDR3 of the heavy chain (limits as in the source). Parent: GFTLNSYGIS, VIYSDGRRTFYGDSVK, GRAAGTFDS.
The read-out is the apparent dissociation constant on a log10 scale (nM): the lower, the stronger.
"nd" means that the variant was in the library but no mating with the target was seen in that replicate; the authors take this as a sign of poor binding, and no number exists.
The range of this assay differs from that of the first round, and the authors advise against merging the two.
The parent sequence was in this pool as ten entries: three were never detected, three once, and four in most replicates, with averages from 0.34 to 2.37.
Nonspecific signal, from three strains lacking the peptide, appeared in 1% of pairings of all heavy chain designs, centred on 2.08 (5% of these signals below 0.84); values are not corrected for it. Also given: how often the same scFv was detected with the empty control strains.
The authors' rule: three or more of the six replicates give a measured affinity, fewer mean a poor binder.

Variant GFDLDEYGIS, VIYADGVRTAYADNVK, GNVAGTFDL gave -1.02, -0.85, -0.18, -0.79, -0.57, nd (controls 0 of 18).
Variant GFDLNEYGIS, VIYADGKRTAYADSVK, GNVAGTFDM gave -0.08, -0.40, -0.32, -0.26, -0.41, 0.02 (controls 0 of 18).
Variant GFDLNEYGIS, VIYADGVRTAYADSVK, GNQAGTFDI gave -0.35, -0.56, -0.50, -0.51, -0.52, -0.14 (controls 0 of 18).
Variant GFDLEDYGIS, VIYADGMRTAYSDSVK, GNNAGTFDV gave 0.40, 0.32, 0.66, 0.36, 0.61, 0.76 (controls 0 of 18).
Variant GFDLNEYGIS, VIYADGKRTAYADSVK, GENAGTFDV gave -0.35, -0.53, -0.53, -0.68, -0.51, 0.07 (controls 1 of 18).
Variant GFDLNEYGIS, VIYADGSRTVYADSVK, GNVAGTFDV gave -0.26, -0.62, -0.73, -1.18, -0.92, -0.37 (controls 0 of 18).
Variant GFDLNEYGIS, VIYADGMRTAYSDSVK, GNIAGTFDV gave -0.58, -0.58, -0.46, -0.48, -0.47, -0.36 (controls 0 of 18).
Variant GFDLNEYGIS, VIYADGVRTAYTDSVK, GEVAGTFDT gave -0.60, -0.26, -0.01, -0.67, -0.71, -0.11 (controls 0 of 18).
Variant GFDLNEYGIS, VIYADGRRTAYSDSVK, GEVAGTFDI gave -0.25, -0.06, 0.09, 0.13, -0.43, 0.01 (controls 0 of 18).
Variant GFDLDEYGIS, VIYADGMRTAYSDSVK, GQNAGTFDI gave 0.13, -0.22, -0.32, -0.24, 0.01, 0.01 (controls 1 of 18).
Variant GFDLEEYGIS, VIYADGQRTAYADSVK, GQNAGTFDV gave 0.27, 0.13, -0.07, 0.03, 0.07, 0.65 (controls 2 of 18).
Variant GFDLNEYGIS, VIYADGMRTAYADKVK, GNNAGTFDV gave -0.39, -0.39, -0.53, -0.79, -0.40, -0.33 (controls 0 of 18).
Variant GFDLEDYGIS, VIYADGKRTAYTDSVK, GNVAGTFDV gave 1.46, 0.53, 0.86, 0.58, 0.32, 0.52 (controls 0 of 18).
Variant GFDLDEYGIS, VIYADGVRTAYSDSVK, GNVAGTFDL gave -0.02, -0.44, -0.16, -0.52, -0.73, -0.49 (controls 0 of 18).
Variant GFDLNEYGIS, VIYADGMRTAYSDDVK, GNQAGTFDI gave -0.31, -0.34, -0.27, -1.04, 0.03, -0.35 (controls 0 of 18).
Variant GFDLNEYGIS, VIYADGSRTAYADDVK, GEVAGTFDQ gave -0.10, -0.29, -0.13, -0.34, -0.35, -0.57 (controls 0 of 18).
Variant GFDLNEYGIS, VIYADGVRTAYADKVK, GNVAGTFDV gave -0.40, -0.65, -0.45, -0.85, -0.95, -0.36 (controls 0 of 18).
Variant GFDLNEYGIS, VIYADGSRKAYADSVK, GEVAGTFDV gave -0.35, -0.58, -0.51, -0.46, 0.13, 0.18 (controls 0 of 18).
Variant GFNLDEYGIS, VIYADGMRTAYTDSVK, GNVAGTFDL gave -0.47, -0.64, -0.39, -0.30, -0.33, -0.22 (controls 0 of 18).
Variant GFDLNEYGIS, VIYADGMRTAYANDVK, GNVAGTFDT gave 0.53, 0.46, 0.34, 0.52, 0.15, 0.70 (controls 0 of 18).
Variant GFDLNEYGIS, VIYADGQRTAYSDSVK, GENAGTFDM gave 0.72, 0.24, 0.34, -0.08, 0.79, -0.51 (controls 0 of 18).
Variant GFDLDEYGIS, VIYADGRRKAYADSVK, GNVAGTFDV gave 1.32, 0.21, -0.11, -0.86, -0.80, -0.69 (controls 0 of 18).
Variant GFDLDEYGIS, VIYADGVRTAYADSVK, GENAGTFDL gave 0.06, -0.17, 0.49, 0.20, -0.20, -0.44 (controls 0 of 18).
Variant GFDLNEYGIS, VIYADGKRTYYADSVK, GNQAGTFDI gave -0.67, -0.26, -0.79, -0.16, -0.87, -0.53 (controls 0 of 18).
Variant GFDLNEYGIS, VIYADGMRTAYADNVK, GNQAGTFDL gave -0.05, -0.30, -0.20, -0.35, -0.48, -0.15 (controls 0 of 18).
Variant GFDLNEYGIS, VIYADGKRTSYADSVK, GEVAGTFDV gave -1.17, -1.28, 0.60, -1.68, -0.26, -1.47 (controls 0 of 18).
Variant GFDLNEYGIS, VIYADGKRTAYADSVK, GEEAGTFDV gave -0.49, -0.57, -0.21, -0.44, -0.54, -0.19 (controls 1 of 18).
Variant GFDLNEYGIS, VIYADGMRTFYSDSVK, GNVAGTFDT gave -0.46, -0.72, -0.49, -0.95, -0.45, -0.42 (controls 0 of 18).
Variant GFDLDEYGIS, VIYADGKRTAYADDVK, GEVAGTFDQ gave -0.41, -0.45, -0.46, -0.44, -0.68, -0.60 (controls 1 of 18).
Variant GFDLNEYGIS, VIYADGKRTAYSDSVK, GNVAGTFDL gave -0.08, -0.46, -0.89, -0.68, -0.58, -0.59 (controls 0 of 18).
Variant GFDLNEYGIS, VIYADGRRTAYADKVK, GQNAGTFDV gave -0.30, -0.40, -0.59, -0.76, -0.58, -0.32 (controls 0 of 18).
Variant GFDLNEYGIS, VIYADGKRTFYADSVK, GEVAGTFDV gave -1.12, -1.30, -0.89, -0.91, -0.88, -0.52 (controls 0 of 18).
Variant GFDLNEYGIS, VIYADGKRTAYADDVK, GNQAGTFDT gave 0.09, -0.75, -0.01, -0.68, -0.47, -0.29 (controls 0 of 18).
Variant GFDLNEYGIS, VIYADGKRTAYADSVK, GENAGTFDA gave -0.54, -0.29, -0.35, -0.45, -0.75, -0.48 (controls 1 of 18).
Variant GFDLDEYGIS, VIYADGMRTFYADSVK, GNVAGTFDT gave -0.15, 0.09, -0.33, -0.59, -0.22, -0.27 (controls 0 of 18).
Variant GFDLNEYGIS, VIYADGMRTSYADDVK, GQNAGTFDV gave 0.34, 0.09, 0.15, -0.05, 0.16, 0.32 (controls 1 of 18).
Variant GFDLNEYGIS, VIYADGSRTAYADSVK, GNNAGTFDM gave 0.04, -0.18, 0.29, -0.19, -0.11, 0.32 (controls 0 of 18).
Variant GFDLNEYGIS, VIYADGSRTAYADDVK, GNVAGTFDQ gave -0.04, -0.35, -0.16, -0.45, -0.43, -0.06 (controls 0 of 18).
Variant GFDLNEYGIS, VIYADGVRTAYADSVK, GENAGTFVV gave 2.08, nd, 2.57, nd, nd, nd (controls 2 of 18).
Variant GFDLSEYGIS, VIYADGVRTAYADSVK, GENAGTFDV gave nd, 3.40, 1.11, nd, nd, nd (controls 2 of 18).
Variant GFDLDEYGIS, VIYADGQRTAYTDSVK, GNVAGTFDQ gave -0.72, -0.55, -0.92, -1.06, -0.56, -1.06 (controls 0 of 18).
Variant GFDLNEYGIS, VIYADGKRTAYADSVK, GQNAGTFDV gave -0.81, -0.97, -0.24, -0.65, 1.47, 0.13 (controls 0 of 18).
Variant GFDLNEYGIS, VIYADGQRTAYADDVK, GNQAGTFDL gave 0.86, 1.01, 1.04, 0.95, 1.05, 1.54 (controls 0 of 18).
Variant GFDLNEYGIS, VIYADGMRKAYADSVK, GNEAGTFDV gave -0.55, -0.20, -0.53, -0.87, -0.17, -0.17 (controls 0 of 18).
Variant GFDLNEYGIS, VIYADGVRTAYTDSVK, GEVAGTFDI gave 0.21, 0.30, 0.46, 0.79, 0.13, 0.58 (controls 0 of 18).
Variant GFDLDEYGIS, VIYADGKRTVYADSVK, GNNAGTFDV gave 0.18, 0.15, -0.25, -0.66, 0.39, -0.19 (controls 0 of 18).
Variant GFDLDEYGIS, VIYADGKRTAYADSVK, GQVAGTFDI gave 0.10, 0.33, -0.36, -0.04, -0.21, 0.04 (controls 0 of 18).
Variant GFDLDEYGIS, VIYADGMRTAYADSVK, GNQAGTFDI gave -0.28, -0.49, -0.58, -0.46, -0.52, -0.29 (controls 0 of 18).
Variant GFDLNEYGIS, VIYADGQRTAYADDVK, GNVAGTFDQ gave -0.33, -0.88, -0.74, -0.95, -0.75, -0.50 (controls 1 of 18).
Variant GFDLDEYGIS, VIYADGSRTAYSDSVK, GNVAGTFDQ gave -0.03, 0.00, 0.11, -0.47, -0.05, 0.02 (controls 1 of 18).

Top 4 of the variants detected in all replicates, tightest first:

CDR-H1	CDR-H2	CDR-H3	log10 Kd, replicates	empty controls
GFDLNEYGIS	VIYADGKRTFYADSVK	GEVAGTFDV	-1.12, -1.30, -0.89, -0.91, -0.88, -0.52	0/18
GFDLNEYGIS	VIYADGKRTSYADSVK	GEVAGTFDV	-1.17, -1.28, 0.60, -1.68, -0.26, -1.47	0/18
GFDLDEYGIS	VIYADGQRTAYTDSVK	GNVAGTFDQ	-0.72, -0.55, -0.92, -1.06, -0.56, -1.06	0/18
GFDLNEYGIS	VIYADGQRTAYADDVK	GNVAGTFDQ	-0.33, -0.88, -0.74, -0.95, -0.75, -0.50	1/18

From the AlphaSeq antibody data of Li et al. 2023 (doi:10.1038/s41467-023-39022-2), copy in the FLAb collection.